Patent US7267949B2, “Composition comprising methylphenidate and another drug” (Celltech Pharma Europe Limited, priority 1995, dated 2007)

Amino acid sequences for entries named in this document (tags omitted).
UniProt P11712, whole entry: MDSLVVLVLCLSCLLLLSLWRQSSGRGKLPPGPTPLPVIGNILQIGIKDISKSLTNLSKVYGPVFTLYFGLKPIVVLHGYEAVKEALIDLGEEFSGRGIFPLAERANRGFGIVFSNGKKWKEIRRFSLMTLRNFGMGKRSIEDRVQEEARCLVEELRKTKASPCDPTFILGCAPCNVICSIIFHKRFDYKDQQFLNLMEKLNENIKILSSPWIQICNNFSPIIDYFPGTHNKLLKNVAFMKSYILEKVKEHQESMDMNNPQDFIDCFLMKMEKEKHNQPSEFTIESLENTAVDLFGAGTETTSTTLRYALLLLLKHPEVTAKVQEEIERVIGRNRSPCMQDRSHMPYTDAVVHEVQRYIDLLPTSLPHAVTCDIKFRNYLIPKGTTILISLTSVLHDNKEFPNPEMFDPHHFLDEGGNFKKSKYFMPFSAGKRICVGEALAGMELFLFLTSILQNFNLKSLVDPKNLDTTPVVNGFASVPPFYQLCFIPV

Target: P450 Isozyme 2C9 (Homo sapiens, UniProt P11712)
Test: Tolbutamide hydroxylase activity in human microsome preparations
Settings: test substance at 100 μM, human microsomes

Question: For COC(=O)[C@H](c1ccccc1)[C@H]1CCCCN1 [dtmp, d-threo-methylphenidate], which “% Inhibition of Enzyme Activity (Tolbutamide hydroxylase, 2C9)” value is on record?
Answer: Its value is 25%.
